Assay results: patent US7557117B2, “4-oxoimidazolidine-2-spiropiperidine derivatives” (dated 2009)

Key:
[1] = target: T1, nociceptin receptor ORL1 (Homo sapiens, UniProt P41146); test: Nociceptin receptor binding assay ([125I]Tyr14-Nociceptin, CHO/ORL1 membranes, SPA); details: read-out: IC50 of [125I]Tyr14-Nociceptin binding to the nociceptin receptor; CHO/ORL1 membrane, 50 pM [125I]Tyr14-Nociceptin, 37° C., 60 minutes
[2] = target: T1, nociceptin receptor ORL1; test: Nociceptin-elicited G protein activation (GTPγ[35S] binding, CHO/ORL1 membranes); details: read-out: EC50 of G protein activation (GTPγ[35S] binding); CHO/ORL1 membrane, 25° C., 150 minutes; compared with the increase caused by 1 μM nociceptin

SMILES | IC50 [1] | EC50 [2]
CC(C)(C)CC(C)(C)N1CCC2(CC1)NC(=O)CN2c1cccc(F)c1 | 0.2 nM | 1.2 nM
CCCCC(CC)N1CCC2(CC1)NC(=O)CN2c1ccccc1 (centres unmarked) | 2.2 nM | 89 nM
O=C1CN(c2ccccc2)C2(CCN(C3CCC4CCCCC4C3)CC2)N1 (centres unmarked) | 0.35 nM | 3.8 nM
CC(C)(C)CC(C)(C)N1CCC2(CC1)NC(=O)CN2c1ccccc1 | 0.27 nM | 3.5 nM
